Laboratory results from ChEMBL document CHEMBL1157475, “Selective influence on contextual memory: physiochemical properties associated with selectivity of benzodiazepine ligands at GABAA receptors containing the alpha5 subunit” (J Med Chem, 2008).

Chains of the proteins cited; added tags and fusions are not shown. Lines headed by an entry give the natural chain unless they say otherwise; changes in a name come on top.
UniProt P18507: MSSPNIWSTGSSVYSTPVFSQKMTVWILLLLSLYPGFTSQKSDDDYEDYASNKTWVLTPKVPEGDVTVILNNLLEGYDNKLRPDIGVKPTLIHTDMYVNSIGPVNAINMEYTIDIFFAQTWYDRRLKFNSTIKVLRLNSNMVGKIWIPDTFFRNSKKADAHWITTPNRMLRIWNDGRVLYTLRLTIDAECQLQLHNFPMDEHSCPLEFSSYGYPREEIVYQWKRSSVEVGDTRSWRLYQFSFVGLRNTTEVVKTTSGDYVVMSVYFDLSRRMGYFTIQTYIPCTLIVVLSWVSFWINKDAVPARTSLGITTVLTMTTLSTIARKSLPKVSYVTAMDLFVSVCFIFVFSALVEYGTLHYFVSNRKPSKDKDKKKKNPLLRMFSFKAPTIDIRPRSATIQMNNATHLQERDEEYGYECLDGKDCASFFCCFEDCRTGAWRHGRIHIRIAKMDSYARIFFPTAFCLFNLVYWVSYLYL
UniProt P47870: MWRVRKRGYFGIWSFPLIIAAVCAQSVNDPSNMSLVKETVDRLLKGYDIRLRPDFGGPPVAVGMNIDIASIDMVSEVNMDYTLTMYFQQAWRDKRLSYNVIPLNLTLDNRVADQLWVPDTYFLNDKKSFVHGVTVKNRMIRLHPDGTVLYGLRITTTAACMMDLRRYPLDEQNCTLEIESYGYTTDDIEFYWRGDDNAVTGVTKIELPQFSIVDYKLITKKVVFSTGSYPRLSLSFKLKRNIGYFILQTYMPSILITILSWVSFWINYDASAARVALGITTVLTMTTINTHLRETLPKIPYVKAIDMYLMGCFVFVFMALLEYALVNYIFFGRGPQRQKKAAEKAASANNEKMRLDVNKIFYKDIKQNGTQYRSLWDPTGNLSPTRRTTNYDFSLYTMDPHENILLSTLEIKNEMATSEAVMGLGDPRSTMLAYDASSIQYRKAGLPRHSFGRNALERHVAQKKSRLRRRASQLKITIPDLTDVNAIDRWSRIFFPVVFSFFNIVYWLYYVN

Target: T1, Gamma-aminobutyric acid receptor subunit alpha-5 (Homo sapiens, UniProt P18507+P31644+P47870)
T1 sequence (P31644 whole entry): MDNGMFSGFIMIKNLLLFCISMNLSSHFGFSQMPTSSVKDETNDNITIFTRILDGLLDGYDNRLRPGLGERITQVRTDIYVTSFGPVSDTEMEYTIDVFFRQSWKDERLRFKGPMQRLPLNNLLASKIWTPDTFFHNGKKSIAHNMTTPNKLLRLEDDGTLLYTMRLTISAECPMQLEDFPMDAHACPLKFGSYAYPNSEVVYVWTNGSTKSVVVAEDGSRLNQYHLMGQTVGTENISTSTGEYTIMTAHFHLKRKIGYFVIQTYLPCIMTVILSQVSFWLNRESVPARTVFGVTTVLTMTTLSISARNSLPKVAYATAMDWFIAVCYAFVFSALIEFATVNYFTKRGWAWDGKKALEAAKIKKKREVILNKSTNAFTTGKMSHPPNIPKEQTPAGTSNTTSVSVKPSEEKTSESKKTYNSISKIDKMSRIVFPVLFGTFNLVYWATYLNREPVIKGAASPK
Test: Binding affinity to GABAA alpha-5-beta-2-gamma-2 receptor
Procedure, shortened: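 Sf-9 insect cells infected with baculovirus carrying α5, β2 and γ2 subunits in equimolar ratio (2 MOI), harvested 60 h post-infection, then homogenized in 50 mM Tris-HCl pH 7.7. Incubated 90 min at 0 °C in triplicate; filtration and scintillation counting.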

SMILES: CCOC(=O)c1cc2c(cn1)[nH]c1ccccc12
- Kd: 27 nM
